As usually defined, the IC50 is the concentration that gives 50% inhibition. Higher therefore signals weaker potency.

Chains of the proteins cited; added tags and fusions are not shown.
UniProt P23975, whole entry: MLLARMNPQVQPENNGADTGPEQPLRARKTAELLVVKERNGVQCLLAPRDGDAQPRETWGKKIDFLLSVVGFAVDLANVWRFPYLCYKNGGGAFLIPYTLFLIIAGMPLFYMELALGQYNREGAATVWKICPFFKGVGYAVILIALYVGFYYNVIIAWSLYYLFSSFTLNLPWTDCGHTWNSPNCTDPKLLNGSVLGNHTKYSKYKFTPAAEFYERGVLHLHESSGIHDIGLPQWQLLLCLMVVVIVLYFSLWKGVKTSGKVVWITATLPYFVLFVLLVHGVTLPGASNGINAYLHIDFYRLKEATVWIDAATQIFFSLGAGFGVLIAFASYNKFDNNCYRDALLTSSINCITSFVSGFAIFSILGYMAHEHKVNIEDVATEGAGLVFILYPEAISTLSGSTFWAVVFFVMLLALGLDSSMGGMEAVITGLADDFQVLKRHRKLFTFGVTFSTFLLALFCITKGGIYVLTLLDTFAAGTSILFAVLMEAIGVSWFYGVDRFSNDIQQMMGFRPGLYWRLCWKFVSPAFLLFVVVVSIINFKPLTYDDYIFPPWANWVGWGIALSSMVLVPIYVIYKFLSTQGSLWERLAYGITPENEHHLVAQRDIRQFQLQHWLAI

For experiment [1], the target named is T1, human noradrenaline transporter (hNET) (Homo sapiens, UniProt P23975).
T1 construct: expressed in transfected cells; host or cells: COS-7 cells (ATCC), transient transfection with metafectene
The experiment is described as follows: biochemical. As to conditions: Av IC50 Displacement of 3H-nisoxetine from hNET. The experiment is classed as binding. On the technique in general: In a radioligand displacement assay an active substance lowers the binding of a labelled ligand.

Experiment [2] has as its target T1, human noradrenaline transporter (hNET). Kind of experiment: cell-based.

For the molecule `CCCC[C@H](NC(=O)CNC(=O)[C@@H](N)CC(N)=O)C(=O)N[C@H]1CSSC[C@@H](C(N)=O)NC(=O)[C@@H]2C[C@@H](O)CN2C(=O)[C@H](Cc2c[nH]cn2)NC(=O)[C@@H]2CSSC[C@H](NC1=O)C(=O)NCC(=O)N[C@@H](Cc1ccc(OC)cc1)C(=O)N[C@@H](CCCCN)C(=O)N[C@@H](CC(C)C)C(=O)N2` [compound 74], the IC50 is 0.251 µM in experiment [1] and 0.214 µM in experiment [2].

For the molecule `CC(C)C[C@@H]1NC(=O)[C@H](CCCCN)NC(=O)[C@H](Cc2ccc(O)cc2)NC(=O)CNC(=O)[C@@H]2CSSC[C@H](NC1=O)C(=O)N[C@@H](Cc1c[nH]cn1)C(=O)N1C[C@H](O)C[C@H]1C(=O)N[C@H](C(N)=O)CSSC[C@H](NC(=O)[C@@H](NC(=O)CNC(=O)[C@@H](N)CCCNC(N)=O)C(C)C)C(=O)N2` [compound 139], the IC50 was 2.29 µM in experiment [1] and 0.437 µM in experiment [2].

Turning to `CC(C)C[C@@H]1NC(=O)[C@H](CCCCN)NC(=O)[C@H](Cc2ccc(O)cc2)NC(=O)CNC(=O)[C@@H]2CSSC[C@H](NC1=O)C(=O)N[C@@H](Cc1c[nH]cn1)C(=O)N1C[C@H](O)C[C@H]1C(=O)N[C@H](C(N)=O)CSSC[C@H](NC(=O)[C@@H](NC(=O)CNC(=O)[C@@H](N)[C@@H](C)O)C(C)C)C(=O)N2` [compound 135], the IC50 in experiment [1] is 1.95 µM; in experiment [2], 0.49 µM.

Consider `CCCC[C@H](NC(=O)CNC(=O)[C@H](CCCNC(=N)N)NC(=O)[C@H](CCCN)NC(=O)[C@@H](N)Cc1ccc(O)cc1)C(=O)N[C@H]1CSSC[C@@H](C(N)=O)NC(=O)[C@@H]2C[C@@H](O)CN2C(=O)[C@H](CCCNC(=N)N)NC(=O)[C@@H]2CSSC[C@H](NC1=O)C(=O)NCC(=O)N[C@@H](Cc1ccc(OC)cc1)C(=O)N[C@@H](CCCCN)C(=O)N[C@@H](CC(C)C)C(=O)N2` [compound 23], for which the IC50 was 0.0447 µM in experiment [1] and 0.0617 µM in experiment [2].

Turning to `CC(C)C[C@@H]1NC(=O)[C@H](CCCCN)NC(=O)[C@H](Cc2ccc(O)cc2)NC(=O)CNC(=O)[C@@H]2CSSC[C@H](NC1=O)C(=O)N[C@@H](Cc1c[nH]cn1)C(=O)N1C[C@H](O)C[C@H]1C(=O)N[C@H](C(N)=O)CSSC[C@H](NC(=O)[C@@H](NC(=O)CNC(=O)[C@H](CC(N)=O)NC(=O)[C@@H]1CCC(=O)N1)C(C)C)C(=O)N2` [compound 157], the half-maximal inhibitory concentration (IC50) was 4.68 µM in experiment [1] and 0.759 µM in experiment [2].

For `CC(C)C[C@@H]1NC(=O)[C@H](CCCCN(C)C)NC(=O)[C@H](Cc2ccc(O)cc2)NC(=O)CNC(=O)[C@@H]2CSSC[C@H](NC1=O)C(=O)N[C@@H](Cc1c[nH]cn1)C(=O)N1C[C@H](O)C[C@H]1C(=O)N[C@H](C(N)=O)CSSC[C@H](NC(=O)[C@@H](NC(=O)CNC(=O)[C@@H](N)CC(N)=O)C(C)C)C(=O)N2` [compound 167], the IC50 in experiment [1] is 8.51 µM; in experiment [2], 1.45 µM.

Take `CCCC[C@H](NC(=O)CNC(=O)[C@H](CCCNC(=N)N)NC(=O)[C@H](Cc1ccc(O)cc1)NC(=O)[C@@H](N)CCCN)C(=O)N[C@H]1CSSC[C@@H](C(N)=O)NC(=O)[C@@H]2C[C@@H](O)CN2C(=O)[C@H](CCCNC(=N)N)NC(=O)[C@@H]2CSSC[C@H](NC1=O)C(=O)NCC(=O)N[C@@H](Cc1ccc(OC)cc1)C(=O)N[C@@H](CCCCN)C(=O)N[C@@H](CC(C)C)C(=O)N2` [compound 15]: the IC50 in experiment [1] was 0.0219 µM; in experiment [2], 0.0468 µM.

Regarding `COc1ccc(C[C@@H]2NC(=O)CNC(=O)[C@@H]3CSSC[C@H](NC(=O)[C@H](CC(C)C)NC(=O)[C@H](CCCCN)NC2=O)C(=O)N[C@@H](Cc2c[nH]cn2)C(=O)N2CCC[C@H]2C(=O)N[C@H](C(N)=O)CSSC[C@H](NC(=O)[C@@H](NC(=O)CNC(=O)[C@H](CC(N)=O)NC(=O)[C@@H](N)Cc2ccc(O)cc2)C(C)C)C(=O)N3)cc1` [compound 86], the IC50 was 0.316 µM in experiment [1] and 0.11 µM in experiment [2].

`CCCC[C@H](N)C(=O)NCC(=O)N[C@H](C(=O)N[C@H]1CSSC[C@@H](C(N)=O)NC(=O)[C@@H]2C[C@@H](O)CN2C(=O)[C@H](Cc2c[nH]cn2)NC(=O)[C@@H]2CSSC[C@H](NC1=O)C(=O)NCC(=O)N[C@@H](Cc1ccc(O)cc1)C(=O)N[C@@H](CCCCN)C(=O)N[C@@H](CC(C)C)C(=O)N2)C(C)C` [compound 119]: the IC50 in experiment [1] was 1.17 µM; in experiment [2], 0.479 µM.

With `CCCC[C@H](NC(=O)CNC(=O)[C@H](CCCNC(=N)N)NC(=O)[C@@H](N)CCCN)C(=O)N[C@H]1CSSC[C@@H](C(N)=O)NC(=O)[C@@H]2C[C@@H](O)CN2C(=O)[C@H](CCCNC(=N)N)NC(=O)[C@@H]2CSSC[C@H](NC1=O)C(=O)NCC(=O)N[C@@H](Cc1ccc(OC)cc1)C(=O)N[C@@H](CCCCN)C(=O)N[C@@H](CC(C)C)C(=O)N2` [compound 17], the half-maximal inhibitory concentration (IC50) in experiment [1] was 0.0282 µM; in experiment [2], 0.0617 µM.

As to `CC(C)C[C@@H]1NC(=O)[C@H](CCCCN)NC(=O)[C@H](Cc2ccc(O)cc2)NC(=O)CNC(=O)[C@@H]2CSSC[C@H](NC1=O)C(=O)N[C@@H](Cc1c[nH]c3ccccc13)C(=O)N1C[C@H](O)C[C@H]1C(=O)N[C@H](C(N)=O)CSSC[C@H](NC(=O)[C@@H](NC(=O)CNC(=O)[C@H](CC(N)=O)NC(=O)[C@@H](N)Cc1ccc(O)cc1)C(C)C)C(=O)N2` [compound 71], the results for the IC50 in experiment [1] and in experiment [2] were 0.229 µM and 0.038 µM, respectively.

As to `CCCC[C@H](NC(=O)CNC(=O)C[C@@H](N)CCCCN)C(=O)N[C@H]1CSSC[C@@H](C(N)=O)NC(=O)[C@@H]2C[C@@H](O)CN2C(=O)[C@H](Cc2c[nH]cn2)NC(=O)[C@@H]2CSSC[C@H](NC1=O)C(=O)NCC(=O)N[C@@H](Cc1ccc(OC)cc1)C(=O)N[C@@H](CCCCN)C(=O)N[C@@H](CC(C)C)C(=O)N2` [compound 32], the IC50 in experiment [1] is 0.0871 µM; in experiment [2], 0.0692 µM.

For the molecule `CCCC[C@H](NC(=O)CNC(=O)[C@H](CCCNC(=N)N)NC(=O)[C@H](Cc1ccc(O)cc1)NC(=O)[C@@H]1CCC(=O)N1)C(=O)N[C@H]1CSSC[C@@H](C(N)=O)NC(=O)[C@@H]2C[C@@H](O)CN2C(=O)[C@H](CCCNC(=N)N)NC(=O)[C@@H]2CSSC[C@H](NC1=O)C(=O)NCC(=O)N[C@@H](Cc1ccc(OC)cc1)C(=O)N[C@@H](CCCCN)C(=O)N[C@@H](CC(C)C)C(=O)N2` [compound 41], the IC50 in experiment [1] is 0.11 µM; in experiment [2], 0.132 µM.

Consider `COc1ccc(C[C@@H]2NC(=O)CNC(=O)[C@@H]3CSSC[C@H](NC(=O)[C@H](CC(C)C)NC(=O)[C@H](CCCCN)NC2=O)C(=O)N[C@@H](CCCNC(=N)N)C(=O)N[C@@H](CCCCN)C(=O)N[C@H](C(N)=O)CSSC[C@H](NC(=O)[C@H](CC(C)C)NC(=O)CNC(=O)[C@H](CCCNC(=N)N)NC(=O)[C@@H](N)Cc2c[nH]c4ccccc24)C(=O)N3)cc1` [compound 36], for which the IC50 in experiment [1] was 0.0977 µM; in experiment [2], 0.0851 µM.

For `CC(C)C[C@H](NC(=O)CNC(=O)[C@H](CC(N)=O)NC(=O)[C@@H](N)Cc1c[nH]c2ccccc12)C(=O)N[C@H]1CSSC[C@@H](C(N)=O)NC(=O)[C@@H]2C[C@@H](O)CN2C(=O)[C@H](Cc2c[nH]cn2)NC(=O)[C@@H]2CSSC[C@H](NC1=O)C(=O)NCC(=O)N[C@@H](Cc1ccc(O)cc1)C(=O)N[C@@H](CCCCN)C(=O)N[C@@H](CC(C)C)C(=O)N2` [compound 72], the IC50 was 0.24 µM in experiment [1] and 0.0603 µM in experiment [2].

On to `CCCC[C@H](NC(=O)CNC(=O)[C@@H](N)CCCN)C(=O)N[C@H]1CSSC[C@@H](C(N)=O)NC(=O)[C@@H]2C[C@@H](O)CN2C(=O)[C@H](Cc2c[nH]cn2)NC(=O)[C@@H]2CSSC[C@H](NC1=O)C(=O)NCC(=O)N[C@@H](Cc1ccc(O)cc1)C(=O)N[C@@H](CCCCN)C(=O)N[C@@H](CCCC)C(=O)N2` [compound 66], for which the IC50 is 0.2 µM in experiment [1] and 0.0912 µM in experiment [2].

On to `CC(C)C[C@@H]1NC(=O)[C@H](CCCCN)NC(=O)[C@H](Cc2ccc(O)cc2)NC(=O)CNC(=O)[C@@H]2CSSC[C@H](NC1=O)C(=O)N[C@@H](Cc1c[nH]cn1)C(=O)N1C[C@H](O)C[C@H]1C(=O)N[C@H](C(N)=O)CSSC[C@H](NC(=O)[C@H](C)NC(=O)CNC(=O)[C@@H](N)CC(N)=O)C(=O)N2` [compound 150], for which the results for the IC50 in experiment [1] and in experiment [2] were 3.47 µM and 0.977 µM, respectively.

Consider `CCCC[C@H](NC(=O)CNC(=O)[C@@H](N)CC(N)=O)C(=O)N[C@H]1CSSC[C@@H](C(N)=O)NC(=O)[C@@H]2C[C@@H](O)CN2C(=O)[C@H](Cc2c[nH]cn2)NC(=O)[C@@H]2CSSC[C@H](NC1=O)C(=O)NCC(=O)N[C@@H](Cc1ccc(O)cc1)C(=O)N[C@@H](CCCCN)C(=O)N[C@@H](CCC(C)C)C(=O)N2` [compound 80], for which the IC50 was 0.282 µM in experiment [1] and 0.135 µM in experiment [2].

In the case of `CCCC[C@@H]1NC(=O)[C@H](CCCCN)NC(=O)[C@H](Cc2ccc(O)cc2)NC(=O)CNC(=O)[C@@H]2CSSC[C@H](NC1=O)C(=O)N[C@@H](Cc1c[nH]cn1)C(=O)N1C[C@H](O)C[C@H]1C(=O)N[C@H](C(N)=O)CSSC[C@H](NC(=O)[C@@H](NC(=O)CNC(=O)[C@@H](N)CC(N)=O)C(C)C)C(=O)N2` [compound 126], the IC50 in experiment [1] was 1.55 µM; in experiment [2], 0.479 µM.

Consider `CCCC[C@H](NC(=O)CNC(=O)[C@@H](N)CCCN)C(=O)N[C@H]1CSSC[C@@H](C(N)=O)NC(=O)[C@@H]2C[C@@H](O)CN2C(=O)[C@H](Cc2c[nH]cn2)NC(=O)[C@@H]2CSSC[C@H](NC1=O)C(=O)NCC(=O)N[C@@H](Cc1ccc(O)cc1)C(=O)N[C@@H](CCCCN)C(=O)N[C@@H](CC(C)C)C(=O)N2` [compound 96], for which the IC50 in experiment [1] is 0.468 µM; in experiment [2] it was 0.288 µM.

`CC(C)C[C@@H]1NC(=O)[C@H](CCCCN)NC(=O)[C@H](Cc2ccc(O)cc2)NC(=O)CNC(=O)[C@@H]2CSSC[C@H](NC1=O)C(=O)N[C@@H](Cc1c[nH]cn1)C(=O)N1C[C@H](O)C[C@H]1C(=O)N[C@H](C(N)=O)CSSC[C@H](NC(=O)[C@@H](NC(=O)CNC(=O)[C@H](CC(N)=O)NC(=O)[C@@H](N)Cc1ccc(O)cc1)C(C)C)C(=O)N2` [compound 88]: the results for the IC50 in experiment [1] and in experiment [2] were 0.331 µM and 0.135 µM, respectively.

For `CCCC[C@H](NC(=O)CNC(=O)[C@@H](N)CC(N)=O)C(=O)N[C@H]1CSSC[C@@H](C(N)=O)NC(=O)[C@@H]2C[C@@H](O)CN2C(=O)[C@H](Cc2c[nH]cn2)NC(=O)[C@@H]2CSSC[C@H](NC1=O)C(=O)NCC(=O)N[C@@H](Cc1ccc(OC)cc1)C(=O)N[C@@H](CCCCN)C(=O)N[C@@H](CCCC)C(=O)N2` [compound 61], the figures for the IC50 in experiment [1] and in experiment [2] were 0.178 µM and 0.126 µM, respectively.

The values above are taken from patent US7507717B2 (Xenome Ltd., priority 2002, dated 2009).
